Assay [1] concerns the target HDAC3 (Homo sapiens (Human), UniProt O15379). The assay is described as follows: HDAC enzyme assay, HDAC3. In kind it is biochemical. To be noted: 0.08 ng/ml enzyme, 17 μM tripeptide substrate.
Assay [2] deals with HDAC6 (Homo sapiens (Human), UniProt Q9UBN7). The experiment in a line: HDAC enzyme assay, HDAC6. To be noted: read-out: IC50(nM) HDAC6; 2 ng/ml enzyme, 14 μM tripeptide substrate.

Chains of the proteins cited; added tags and fusions are not shown. Lines headed by an entry give the natural chain unless they say otherwise; changes in a name come on top.
UniProt O15379: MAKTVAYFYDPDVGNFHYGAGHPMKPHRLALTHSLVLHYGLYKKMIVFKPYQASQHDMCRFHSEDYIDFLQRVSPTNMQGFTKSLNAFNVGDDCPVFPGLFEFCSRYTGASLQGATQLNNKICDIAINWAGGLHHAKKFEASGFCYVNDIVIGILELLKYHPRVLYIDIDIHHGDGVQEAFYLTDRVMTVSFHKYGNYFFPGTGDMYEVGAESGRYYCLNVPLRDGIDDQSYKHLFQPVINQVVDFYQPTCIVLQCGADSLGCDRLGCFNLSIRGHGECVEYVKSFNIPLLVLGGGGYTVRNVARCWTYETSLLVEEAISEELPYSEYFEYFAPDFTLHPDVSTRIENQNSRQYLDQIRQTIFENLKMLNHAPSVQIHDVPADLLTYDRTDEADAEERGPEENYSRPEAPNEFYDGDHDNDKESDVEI
UniProt Q9UBN7: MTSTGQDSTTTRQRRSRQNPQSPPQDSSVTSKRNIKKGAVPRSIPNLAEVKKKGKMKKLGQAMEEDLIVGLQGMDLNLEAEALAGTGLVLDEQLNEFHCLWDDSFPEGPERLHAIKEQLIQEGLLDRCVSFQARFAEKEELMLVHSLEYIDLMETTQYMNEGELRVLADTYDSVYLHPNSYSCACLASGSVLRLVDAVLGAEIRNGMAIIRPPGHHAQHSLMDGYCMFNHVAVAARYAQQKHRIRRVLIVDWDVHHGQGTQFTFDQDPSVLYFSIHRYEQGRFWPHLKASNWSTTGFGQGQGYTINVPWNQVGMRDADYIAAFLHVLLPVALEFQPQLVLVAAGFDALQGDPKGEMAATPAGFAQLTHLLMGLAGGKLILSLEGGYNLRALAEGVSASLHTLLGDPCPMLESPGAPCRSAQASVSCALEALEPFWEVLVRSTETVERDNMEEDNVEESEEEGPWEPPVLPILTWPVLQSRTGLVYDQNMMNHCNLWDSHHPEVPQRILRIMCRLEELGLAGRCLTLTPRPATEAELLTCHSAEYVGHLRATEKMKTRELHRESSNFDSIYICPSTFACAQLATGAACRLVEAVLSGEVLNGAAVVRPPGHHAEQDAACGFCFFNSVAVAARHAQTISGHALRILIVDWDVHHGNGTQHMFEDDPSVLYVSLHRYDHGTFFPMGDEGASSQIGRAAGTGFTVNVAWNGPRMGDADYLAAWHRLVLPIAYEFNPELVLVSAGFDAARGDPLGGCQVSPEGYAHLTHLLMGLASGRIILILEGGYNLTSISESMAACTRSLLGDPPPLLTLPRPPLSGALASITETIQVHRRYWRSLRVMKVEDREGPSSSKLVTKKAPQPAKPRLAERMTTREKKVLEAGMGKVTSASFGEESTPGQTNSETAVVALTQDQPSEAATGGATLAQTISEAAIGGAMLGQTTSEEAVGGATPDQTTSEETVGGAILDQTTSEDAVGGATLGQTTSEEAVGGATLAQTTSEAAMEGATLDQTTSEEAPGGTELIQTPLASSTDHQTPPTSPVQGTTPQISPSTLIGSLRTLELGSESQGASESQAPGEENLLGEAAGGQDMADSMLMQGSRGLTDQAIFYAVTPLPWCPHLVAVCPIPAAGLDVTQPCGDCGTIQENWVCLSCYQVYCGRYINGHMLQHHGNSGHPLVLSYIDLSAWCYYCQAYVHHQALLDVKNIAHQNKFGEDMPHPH

With `COC(c1ccc(F)cc1)(c1ccc(C(=O)N(C)CCCCCCC(=O)NO)cc1)c1ccccn1` (stereo not shown) [4-((4-fluorophenyl)(methoxy)(pyridin-2-yl)methyl)-N-(7-(hydroxyamino)-7-oxoheptyl)-N-methylbenzamide], the IC50 in assay [1] came out at 361 nM; in assay [2], 23 nM.
The matching figures for `O=C(CCCCCCNC(=O)c1cnc(N(CCO)CCc2c[nH]c3ccccc23)nc1)NO` [2-((2-(1H-indol-3-yl)ethyl)(2-hydroxyethyl)amino)-N-(7-(hydroxyamino)-7-oxoheptyl)pyrimidine-5-carboxamide]: 35 nM and 3 nM.
For `O=C(CCCCCCNC(=O)c1ccc(C(O)(c2ccccc2F)c2ccccc2F)cc1)NO` [4-(bis(2-fluorophenyl)(hydroxy)methyl)-N-(7-(hydroxyamino)-7-oxoheptyl)benzamide], in that order: 74 nM and 3 nM.
The matching figures for `O=C(CCCCCCNC(=O)c1ccc(C2(c3ccccc3)OC(=O)c3ccccc32)cc1)NO` (stereo not shown) [N-(7-(hydroxyamino)-7-oxoheptyl)-4-(3-oxo-1-phenyl-1,3-dihydroisobenzofuran-1-yl)benzamide]: 153 nM and 11 nM.
As for `COC(c1ccc(C(=O)N(C)CCCCCCC(=O)NO)cc1)(c1cc(F)cc(F)c1)c1cc(F)cc(F)c1` [4-(bis(3,5-difluorophenyl)(methoxy)methyl)-N-(7-(hydroxyamino)-7-oxoheptyl)-N-methylbenzamide], the concentration for half-maximal inhibition (IC50) in assay [1] is 873 nM; in assay [2] it was 17 nM.

The values above are taken from patent US8609678B2, “Reverse amide compounds as protein deacetylase inhibitors and methods of use thereof” (Acetylon Pharmaceuticals, priority 2010, dated 2013).
